Source: paper PMC11594133, “Enzyme (α-Glucosidase, α-Amylase, PTP1B & VEGFR-2) Inhibition and Cytotoxicity of Fluorinated Benzenesulfonic Ester Derivatives of the 5-Substituted 2-Hydroxy-3-nitroacetophenones” (International Journal of Molecular Sciences, 2024)
Read-outs that look alike come from different tables or passages of the source.

Target: T1, PTP1B (Homo sapiens, UniProt P18031)
T1 sequence (P18031 3-277 limits assumed): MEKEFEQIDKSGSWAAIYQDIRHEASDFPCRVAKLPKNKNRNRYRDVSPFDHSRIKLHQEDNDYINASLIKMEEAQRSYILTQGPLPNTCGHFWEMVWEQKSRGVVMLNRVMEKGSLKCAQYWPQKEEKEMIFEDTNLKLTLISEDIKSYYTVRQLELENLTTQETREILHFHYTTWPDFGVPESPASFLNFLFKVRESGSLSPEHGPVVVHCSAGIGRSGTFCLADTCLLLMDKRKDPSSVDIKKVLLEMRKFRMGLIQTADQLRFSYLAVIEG
Assay: In vitro PTP1B inhibitory assay (Fluorogenic PTP1B (Catalytic Domain) Assay)

Compound	IC50 [µM]	IC50 (read-out: IC50 (µM ± SD) PTP1B, 1–50 µM, duplicate, 30 min incubation, mean ± SD) [µM]
CC(=O)c1cc(F)cc([N+](=O)[O-])c1OS(=O)(=O)c1ccccc1F [Compound 2a, 2-Acetyl-4-fluoro-6-nitrophenyl 2-fluorobenzenesulfonate]	6.3 ± 0.029	
sodium vanadate [Na3VO4, reference compound]		6.3 ± 0.05
